Consider 1 molecule from publication PMC6892603 (Bioorganic & medicinal chemistry letters, 2019).

The subject of this assay is Tulahuen C4 strain of Trypanosoma cruzi. The following applies: T. cruzi vs host cell cytotoxicity.

`CN1CCN(c2ccc(S(=O)(=O)NCc3ccc(C(=O)Nc4cccnc4)cc3)cc2)CC1` [Compound 2] had a selectivity-index of no less than 10.
